Sfp inh: qHTS Assay for Inhibitors of Bacillus subtilis Sfp phosphopantetheinyl transferase (PPTase) | 4'-phosphopantetheinyl transferase ffp (Bacillus subtilis), Q9F4F7 | Biochemical Sfp PPTase activity, qHTS | Potency, µM, for inactives: max response, negative = inhibition, hits mostly inhibitors | 3.5% of 310,000 active | AID 1490, 2009; active = well fitted inhibition curve with a large enough effect; inconclusive = small, poorly fitted or top-dose-only effect, or another doubt; inactive = no such curve, though single readings can be large or run the other way;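 also: the enzyme is Sfp with the accession as filed and its product quenches rhodamine fluorescence; potency is read from the fitted curve at half-maximal effect; 0% = enzyme reaction without inhibitor and -100% = no enzyme wells; top concentration of the series not given in the record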
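Sfp 15 nM + cpd, 15 min RT; start w/ rhodamine-CoA 5 uM, BHQ-2-YbbR 12.5 uM (final); 50 mM Hepes pH 7.6, 10 mM MgCl2, 0.01% NP-40, 0.01% BSA; read 525/598 nm at 0 and 30 min.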
LMNA splice mod: LMNA splicing modulation; HeLa LMNA splicing GFP/RFP minigene ratio, 48 h; Potency, µM (series often up to 46.1 µM), inactives show at the top dose ratio change, negative = inhibition, hits mostly inhibitors; AID 1487; 0.01% of 200,000 active; active = well fitted inhibition curve with a large enough effect in the signal ratio, with a control signal flat, not every such curve was filed as active; inconclusive = small, poorly fitted or top-dose-only effect, or effect the other way, or a change in a side signal; the % refers to the signal ratio; note: potency is the fitted concentration of half-maximal effect; % is set by controls: 0 for no effect and ±100 for the full control effect
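S3 HeLa cells stably expressing lamin A-EGFP splicing minigene plus DsRed2, 600 cells/well, 48 h compound exposure at 37C. Laser-scanning cytometry; analysed as GFP (500-530 nm)/RFP (575-640 nm) total intensity ratio; 0.5% DMSO vehicle.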
miR-21 reporter: miR-21 reporter, rising signal | HeLa miR-21 FLuc reporter, luciferase, 48 h | Potency, µM (doses to about 38.3 µM), inactives show at the top dose reporter change, positive = more light | 340,000 tested, under 10 active | AID 2288; active = well fitted rising curve with a large enough effect; inconclusive = small, poorly fitted or top-dose-only effect; inactive = no such curve, though single readings can be large or run the other way;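 note: % of control where 0% means no effect; miR-21 action dims this reporter so a rising signal means less miR-21 action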
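Luminescence from a firefly luciferase reporter carrying a miR-21 binding site downstream, stably expressed under a CMV promoter in HeLa cells that make miR-21 endogenously, reports miRNA modulation after 48 h compound exposure up to approximately 40uM final.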
KDM4E inh: blocks human JMJD2E demethylase activity; Potency, µM (doses to about 57.1 µM), without a hit: at the highest dose activity change, negative = inhibition, usual class: inhibitors; JMJD2E catalytic domain, FDH-coupled NADH fluorescence (FDH is formaldehyde dehydrogenase); B2RXH2; AID 2147; 1.6% of 230,000 active; active = well fitted inhibition curve with a large enough effect, not every such curve was filed as active; inconclusive = small, poorly fitted or top-dose-only effect, or another doubt; inactive = no such curve, though single readings can be large or run the other way;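 note: potency is the fitted concentration of half-maximal effect; 0% = wells with enzyme and -100% = buffer wells without enzyme; nearly all actives have a fitted effect of over 50% in size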
ALDH1A1 block: inhibitors of human aldehyde dehydrogenase 1A1. Purified ALDH1A1, NADH fluorescence, propionaldehyde substrate. Potency, µM (titrated, usually from 75.3 µM), for the others: at the top dose activity, negative = inhibition, most hits filed as inhibitors. 7.3% of 220,000 active; active = well fitted inhibition curve with a large enough effect, not every such curve was filed as active; inconclusive = small, poorly fitted or top-dose-only effect, or another doubt; inactive = no such curve, though single readings can be large or run the other way;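 note: potency is the fitted concentration of half-maximal effect; plate controls were no enzyme wells and a reference inhibitor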
G9a inh: inhibitors of human histone lysine methyltransferase G9a; G9a H3K9 monomethylation, AlphaScreen, 2 h; Q96KQ7; Potency, µM (titrated, usually from 102 µM), without a hit: at the highest dose activity, negative = inhibition, hits mostly inhibitors; 8.8% of 350,000 active; note: potency is the fitted concentration of half-maximal effect; % is set by controls: 0 for no effect and ±100 for the full control effect; nearly all actives have a fitted effect of over 75% in size
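AlphaScreen read-out: biotin-H3K9 peptide (500 nM) methylation by 20 nM enzyme with 20 uM SAM, 2 h at room temperature after 15 min compound preincubation; anti-monomethyl H3K9 antibody plus donor/acceptor beads, 10 min dark.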
Numbers without * were called inactive; ! = not active in a repeat; [ ] = dose if it differs, or a comment. In the library only some 13% were active in any assay of this set; here they are far more common. Unless noted, calls come from the whole dose curve; as a rule, active = well fitted curve in the direction sought with a large enough effect; inconclusive = small, poorly fitted or top-dose-only effect, or another doubt; inactive = no such curve, though single readings can be large; an effect the other way counts as inactive or inconclusive.

`CN1C(CC(=O)Nc2ccc(Cl)cc2Cl)c2ccccc2CC1(C)C` (configuration not stated) gave Sfp inh 8%, miR-21 reporter 19%, KDM4E inh inconclusive and G9a inh inconclusive.
For CCOC(=O)/C(C(=O)Nc1ccc(Cl)cc1Cl)=C1/NC(C)(C)Cc2ccccc21 the results were Sfp inh 9%, LMNA splice mod -8%, miR-21 reporter -2%, KDM4E inh -14%, ALDH1A1 block 13µM* and G9a inh -1%[59 µM].
`C/C(CC(=O)Nc1ccc2c(c1)OCO2)=N\NC(=O)C(c1ccccc1)c1ccccc1` gave Sfp inh -14%, LMNA splice mod 5%, miR-21 reporter -4%, KDM4E inh -12%, ALDH1A1 block 3.2µM* and G9a inh 3%.
`C/C(CC(=O)Nc1ccc2c(c1)OCO2)=N\NC(=O)c1ccccc1N` gave Sfp inh -10%, miR-21 reporter -45% and KDM4E inh 0%.
For O=C(CC1Nc2ccccc2NC1=O)Nc1ccc2c(c1)OCO2 (configuration not stated) the results were Sfp inh -13%, miR-21 reporter 2%, KDM4E inh inconclusive, ALDH1A1 block inconclusive and G9a inh 13µM*.
`O=C(CC1Nc2cccc3cccc(c23)NC1=O)Nc1ccccc1` (configuration not stated) gave Sfp inh 18µM*, LMNA splice mod inconclusive, miR-21 reporter 5%, KDM4E inh -3%, ALDH1A1 block inconclusive and G9a inh 3%[59 µM].
Cc1noc(/C=C/c2ccccc2F)c1S(=O)(=O)N1CCC(C(=O)Nc2ccc(C#N)cc2)CC1 was read as LMNA splice mod 6%[46 µM], miR-21 reporter 19% and G9a inh -4%[59 µM].
Screening CC(=O)N(O)CCCCCNC(=O)CCC(=O)N(O)CCCCCNC(=O)CCC(=O)N(O)CCCCCN returned Sfp inh 45µM*!, LMNA splice mod inconclusive, miR-21 reporter 19%, KDM4E inh 22µM*, ALDH1A1 block 6% and G9a inh -8%.
COc1cccc2c1C(=O)c1c(O)c3c(c(O)c1C2=O)C[C@@](O)(C(=O)CO)C[C@@H]3OC1C[C@@H](N)[C@H](O)[C@H](C)O1 (some centres not stated) was read as Sfp inh inconclusive, ALDH1A1 block -12% and G9a inh 14µM*.
COc1cccc2c1C(=O)c1c(O)c3c(c(O)c1C2=O)C[C@@](O)(C(C)=O)C[C@@H]3O[C@H]1C[C@H](N)[C@H](O)[C@H](C)O1 was read as Sfp inh 50µM*!, LMNA splice mod inconclusive, miR-21 reporter inconclusive, KDM4E inh 35µM*!, ALDH1A1 block inconclusive and G9a inh 35µM*.
Screening COc1cccc2c1C(=O)c1c(O)c3c(c(O)c1C2=O)C[C@](O)(C(=O)CO)C[C@@H]3O[C@H]1C[C@H](N)[C@@H](O)[C@H](C)O1 returned Sfp inh 11%, LMNA splice mod -11% and G9a inh inconclusive.
Screening CCCCC(=O)OCC(=O)[C@]1(O)Cc2c(O)c3c(c(O)c2[C@H](OC2CC(NC(=O)C(F)(F)F)C(O)C(C)O2)C1)C(=O)c1c(OC)cccc1C3=O (some centres not stated) returned Sfp inh 9%, LMNA splice mod inconclusive and G9a inh 8.9µM*.
`CCCCCC(=O)Nc1ccc(C2C(=O)c3ccccc3C2=O)cc1` gave Sfp inh 14%, miR-21 reporter -32% and G9a inh 4%[12.7 µM].
For CCC(Nc1ccc(-c2nc(-c3ccco3)no2)cc1[N+](=O)[O-])c1ccccc1 (configuration not stated) the results were miR-21 reporter -5% and G9a inh -30%[59 µM].
CN1CC[C@H](CN2c3ccccc3Sc3ccccc32)C1 was read as Sfp inh 4%, LMNA splice mod inconclusive, ALDH1A1 block 6%[13.5 µM] and G9a inh 16µM*.

The final 4 records of the part above open the next one:
Screening CCCCC(=O)OCC(=O)[C@]1(O)Cc2c(O)c3c(c(O)c2[C@H](OC2CC(NC(=O)C(F)(F)F)C(O)C(C)O2)C1)C(=O)c1c(OC)cccc1C3=O (some centres not stated) returned Sfp inh 9%, LMNA splice mod inconclusive and G9a inh 8.9µM*.
`CCCCCC(=O)Nc1ccc(C2C(=O)c3ccccc3C2=O)cc1` gave Sfp inh 14%, miR-21 reporter -32% and G9a inh 4%[12.7 µM].
For CCC(Nc1ccc(-c2nc(-c3ccco3)no2)cc1[N+](=O)[O-])c1ccccc1 (configuration not stated) the results were miR-21 reporter -5% and G9a inh -30%[59 µM].
CN1CC[C@H](CN2c3ccccc3Sc3ccccc32)C1 was read as Sfp inh 4%, LMNA splice mod inconclusive, ALDH1A1 block 6%[13.5 µM] and G9a inh 16µM*.
Screening COc1ccc(/C=N/NC(=O)c2ccc(NC(=O)C3CCCCC3)cc2)cc1O returned Sfp inh 79µM*, miR-21 reporter 7% and G9a inh 3%.
Screening COc1ccc(CN=Cc2[nH]c3ccc(Br)c(Cl)c3c2O)cc1 returned Sfp inh -17%, LMNA splice mod -1%, miR-21 reporter 6%, KDM4E inh -8%, ALDH1A1 block 4µM* and G9a inh 4µM*.
Cc1ccc(N=Cc2cc(Br)cc(Cl)c2O)cc1 was read as Sfp inh 5%, miR-21 reporter -2%, KDM4E inh -18%, ALDH1A1 block 13% and G9a inh 0%.
Screening Cc1cc(C)cc(N=Cc2[nH]c3ccc(Br)c(Cl)c3c2O)c1 returned Sfp inh -10%, LMNA splice mod -7%, miR-21 reporter -9%, KDM4E inh 1%, ALDH1A1 block 7.9µM* and G9a inh 13µM*.
Screening CCOc1ccccc1OC(=O)CN1C(=O)c2ccccc2C1=O returned Sfp inh -6% and miR-21 reporter 2%.
`CNc1nc(-c2ccc3c(c2)CCN3C(=O)CC(C)(C)C)c(C)s1` gave Sfp inh 12%, miR-21 reporter -3%, KDM4E inh 11%, ALDH1A1 block -13% and G9a inh -1%.
For CC(NC(=O)c1ccc2c(c1)CCN2S(=O)(=O)c1ccccc1)c1ccccc1 (configuration not stated) the results were miR-21 reporter 4% and G9a inh 2%[59 µM].
CNc1nc(-c2ccc3c(c2)CCN3C(=O)c2ccccc2F)c(C)s1 was read as Sfp inh 22µM*, miR-21 reporter -19%, KDM4E inh -7%, ALDH1A1 block 11µM* and G9a inh 35µM*.
`CNc1nc(-c2ccc3c(c2)CCN3C(=O)c2ccccc2F)cs1` gave Sfp inh -26%, LMNA splice mod -12%[46 µM], miR-21 reporter -46%, KDM4E inh -17%, ALDH1A1 block 25µM* and G9a inh 50µM*.
Screening CNc1nc(-c2ccc3c(c2)CCN3S(=O)(=O)c2ccccc2)c(C)s1 returned Sfp inh -20%, LMNA splice mod inconclusive, miR-21 reporter 0%, KDM4E inh -10% and ALDH1A1 block 8.9µM*.
Screening CC(=O)Nc1nc(-c2ccc3c(c2)CCN3C(=O)C2CC2)c(C)s1 returned Sfp inh 23%, miR-21 reporter inconclusive and G9a inh inconclusive.
`CCCC(=O)N1CCc2cc(-c3nc(N)sc3C)ccc21` gave Sfp inh -28%, LMNA splice mod 5%, miR-21 reporter -52%, KDM4E inh -4%, ALDH1A1 block -12% and G9a inh 40µM*.

High-throughput results deposited in PubChem BioAssay by National Center for Advancing Translational Sciences (NCATS).
